Results from PMC3547328.

Molecular target: AzAla-labeled smMLCK peptide
Assay: other fluorescence titration

## calmodulin (from UniProt P0DP23 2-149) (natural protein)
  stoichiometry N: 1
